Experimental findings from patent US20240360179A1, “STAPLED PEPTIDES AND METHODS THEREOF” (FOG PHARMACEUTICALS, INC., priority 2021, published 2024) are described below.

By UniProt entry, the sequences of proteins in these tests, tags left out.
UniProt P35222, whole entry: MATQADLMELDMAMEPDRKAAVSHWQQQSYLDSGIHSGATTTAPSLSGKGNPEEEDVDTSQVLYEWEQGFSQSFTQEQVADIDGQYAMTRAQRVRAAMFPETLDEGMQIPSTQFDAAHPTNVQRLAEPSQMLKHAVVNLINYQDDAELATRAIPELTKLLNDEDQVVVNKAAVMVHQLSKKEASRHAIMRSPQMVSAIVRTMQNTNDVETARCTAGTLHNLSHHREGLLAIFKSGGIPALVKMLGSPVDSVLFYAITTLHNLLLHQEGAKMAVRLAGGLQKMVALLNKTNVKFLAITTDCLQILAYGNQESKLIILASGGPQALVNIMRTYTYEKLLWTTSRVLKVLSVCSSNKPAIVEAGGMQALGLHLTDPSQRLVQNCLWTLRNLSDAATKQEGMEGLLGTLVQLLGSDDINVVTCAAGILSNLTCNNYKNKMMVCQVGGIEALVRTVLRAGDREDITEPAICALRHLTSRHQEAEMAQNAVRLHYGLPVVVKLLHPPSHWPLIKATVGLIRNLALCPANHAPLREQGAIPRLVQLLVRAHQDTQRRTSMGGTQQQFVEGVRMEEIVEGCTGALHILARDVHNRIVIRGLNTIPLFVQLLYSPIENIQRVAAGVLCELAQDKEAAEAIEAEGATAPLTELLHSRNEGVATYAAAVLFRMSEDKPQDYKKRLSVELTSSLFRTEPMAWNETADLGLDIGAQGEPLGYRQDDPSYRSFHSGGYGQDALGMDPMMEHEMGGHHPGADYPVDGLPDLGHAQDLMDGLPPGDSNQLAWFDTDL

Assay [1] has as its target T1, full-length B-Catenin (Uniprot ID P35222) (Homo sapiens, UniProt P35222).
T1 construct: 10 nM full-length B-Catenin (Uniprot ID P35222)
In words: biochemical. As to conditions: beta-Catenin FP IC50 (nM), competition fluorescence polarization. The assay is classed as binding.

Assay [2] has as its target beta-catenin/TCF4 interaction (Homo sapiens, UniProt P35222). Put plainly: cell-based. On the set-up: host or cells: HEK293. As to conditions: NanoBRET Abs IC50 (uM), absolute IC50. A general note: In BRET a luciferase serves as donor, and the signal depends on an acceptor being close.

Bounds are passed on as bounds.

For `CC(=O)N1CCC[C@]12CC=CCCCC1(CCCC=CCCCOC(=O)N3CC[C@@]4(C3)NC(=O)[C@H](CCCCNC(=O)CC[C@@H](C(=O)N[C@@H](C)C(N)=O)NC(=O)[C@H](Cc3csc5ccccc35)NC(=O)[C@H](Cc3ccsc3)NC4=O)NC(=O)[C@H](Cc3ccccc3)NC(=O)[C@H](C)NC(=O)C(C)(C)NC(=O)[C@H](Cc3cccc(C(=O)O)c3)NC(=O)[C@H](CC(=O)O)NC1=O)NC(=O)[C@H](CCCN1CCC(F)(F)CC1)NC(=O)[C@H](CC(=O)O)NC2=O` (relative stereo) [I-314, Ac-PL3-Asp-F2PipNva-B5-Asp-3COOHF-Aib-Ala-Phe-Lys*3-PyrS2-3Thi-BztA-GlnR*3-Ala-NH2], the values for the half-inhibitory concentration (IC50) in assay [1] and in assay [2] were below 50 nM and 3 to 10 µM, respectively.
Take `CC(=O)N1CCC[C@]12CC=CCCCC1(CCCC=CCCCOC(=O)N3CC[C@@]4(C3)NC(=O)[C@H](CCCCNC(=O)CC[C@@H](C(=O)N[C@@H](C)C(N)=O)NC(=O)[C@H](Cc3csc5ccccc35)NC(=O)[C@H](Cc3ccsc3)NC4=O)NC(=O)[C@H](Cc3ccccc3)NC(=O)[C@H](C)NC(=O)[C@H](CCC(=O)N3CCOCC3)NC(=O)[C@H](Cc3cccc(C(=O)O)c3)NC(=O)[C@H](CC(=O)O)NC1=O)NC(=O)[C@H](CC(C)(C)C)NC(=O)[C@H](CC(N)=O)NC2=O` (relative stereo) [I-323, Ac-PL3-Asn-Npg-B5-Asp-3COOHF-MorphGln-Ala-Phe-Lys*3-PyrS2-3Thi-BztA-GlnR*3-Ala-NH2]: the IC50 – broadly, the concentration needed to halve the response being measured – in assay [1] was below 50 nM; in assay [2], 1.5 to 3 µM.
In the same order, the values of `CC(=O)N1CCC[C@]12CC=CCCCC1(CCCC=CCCCOC(=O)N3CC[C@@]4(C3)NC(=O)[C@H](CCCCNC(=O)CC[C@@H](C(=O)N[C@@H](C)C(N)=O)NC(=O)[C@H](Cc3csc5ccccc35)NC(=O)[C@H](Cc3ccsc3)NC4=O)NC(=O)[C@H](Cc3ccccc3)NC(=O)[C@H](C)NC(=O)[C@H](CCC(=O)N3CCOCC3)NC(=O)[C@H](Cc3cccc(C(=O)O)c3)NC(=O)[C@H](CC(=O)O)NC1=O)NC(=O)[C@H](CC(C)(C)C)NC(=O)[C@H](CO)NC2=O` (relative stereo) [I-324, Ac-PL3-Ser-Npg-B5-Asp-3COOHF-MorphGln-Ala-Phe-Lys*3-PyrS2-3Thi-BztA-GlnR*3-Ala-NH2] are below 50 nM and above 10 µM.
As for `CC(=O)N1CCC[C@]12CC=CCCCC1(CCCC=CCCCOC(=O)N3CC[C@@]4(C3)NC(=O)[C@H](CCCCNC(=O)CC[C@@H](C(=O)N[C@@H](C)C(N)=O)NC(=O)[C@H](Cc3csc5ccccc35)NC(=O)[C@H](Cc3ccsc3)NC4=O)NC(=O)[C@H](Cc3ccccc3)NC(=O)[C@H](C)NC(=O)[C@H](CCC(=O)N3CCOCC3)NC(=O)[C@H](Cc3cccc(C(=O)O)c3)NC(=O)[C@H](CC(N)=O)NC1=O)NC(=O)[C@H](CC(C)(C)C)NC(=O)[C@H](CC(=O)O)NC2=O` (relative stereo) [I-326, Ac-PL3-Asp-Npg-B5-Asn-3COOHF-MorphGln-Ala-Phe-Lys*3-PyrS2-3Thi-BztA-GlnR*3-Ala-NH2], the values for the IC50 in assay [1] and in assay [2] were below 50 nM and 3 to 10 µM, respectively.
In the case of `CC(=O)N1CCC[C@]12CC=CCCCC1(CCCC=CCCCOC(=O)N3CC[C@@]4(C3)NC(=O)[C@H](CCCCNC(=O)CC[C@@H](C(=O)N[C@@H](C)C(N)=O)NC(=O)[C@H](Cc3ccc(Cl)c(Cl)c3)NC(=O)[C@H](Cc3ccsc3)NC4=O)NC(=O)[C@H](Cc3ccccc3)NC(=O)[C@H](C)NC(=O)C(C)(C)NC(=O)[C@H](Cc3cccc(C(=O)O)c3)NC(=O)[C@H](CC(=O)O)NC1=O)NC(=O)[C@H](CC(C)(C)C)NC(=O)[C@H](CC(=O)O)NC2=O` (relative stereo) [I-328, Ac-PL3-Asp-Npg-B5-Asp-3COOHF-Aib-Ala-Phe-Lys*3-PyrS2-3Thi-34ClF-GlnR*3-Ala-NH2], the IC50 in assay [1] is below 50 nM; in assay [2], 1.5 to 3 µM.
For `CC(=O)N1CCC[C@]12CC=CCCCC1(CCCC=CCCCOC(=O)N3CC[C@@]4(C3)NC(=O)[C@H](CCCCNC(=O)CC[C@@H](C(=O)N[C@@H](C)C(N)=O)NC(=O)[C@H](Cc3ccc(Cl)c(Cl)c3)NC(=O)[C@H](Cc3ccccc3)NC4=O)NC(=O)[C@H](Cc3ccccc3)NC(=O)[C@H](C)NC(=O)C(C)(C)NC(=O)[C@H](Cc3cccc(C(=O)O)c3)NC(=O)[C@H](CC(=O)O)NC1=O)NC(=O)[C@H](CC(C)(C)C)NC(=O)[C@H](CC(=O)O)NC2=O` (relative stereo) [I-329, Ac-PL3-Asp-Npg-B5-Asp-3COOHF-Aib-Ala-Phe-Lys*3-PyrS2-Phe-34ClF-GlnR*3-Ala-NH2], the IC50 is below 50 nM in assay [1] and below 1.5 µM in assay [2].
With `CC(=O)N1CCC[C@]12CC=CCCCC1(CCCC=CCCCOC(=O)N3CC[C@@]4(C3)NC(=O)[C@H](CCCCNC(=O)CC[C@@H](C(=O)N[C@@H](C)C(N)=O)NC(=O)[C@H](Cc3ccc(C)c(C)c3)NC(=O)[C@H](Cc3ccccc3C(F)(F)F)NC4=O)NC(=O)[C@H](Cc3ccccc3)NC(=O)[C@H](C)NC(=O)C(C)(C)NC(=O)[C@H](Cc3cccc(C(=O)O)c3)NC(=O)[C@H](CC(=O)O)NC1=O)NC(=O)[C@H](CC(C)(C)C)NC(=O)[C@H](CC(=O)O)NC2=O` (relative stereo) [I-330, Ac-PL3-Asp-Npg-B5-Asp-3COOHF-Aib-Ala-Phe-Lys*3-PyrS2-2F3MeF-34MeF-GlnR*3-Ala-NH2], the IC50 was below 50 nM in assay [1] and 3 to 10 µM in assay [2].
For `CC(=O)N1CCC[C@]12CC=CCCCC1(CCCC=CCCCOC(=O)N3CC[C@@]4(C3)NC(=O)[C@H](CCCCNC(=O)CC[C@@H](C(=O)N[C@@H](C)C(N)=O)NC(=O)[C@H](Cc3cccc(Br)c3)NC(=O)[C@H](Cc3ccsc3)NC4=O)NC(=O)[C@H](Cc3ccccc3)NC(=O)[C@H](C)NC(=O)C(C)(C)NC(=O)[C@H](Cc3cccc(C(=O)O)c3)NC(=O)[C@H](CC(=O)O)NC1=O)NC(=O)[C@H](CC(C)(C)C)NC(=O)[C@H](CC(=O)O)NC2=O` (relative stereo) [I-332, Ac-PL3-Asp-Npg-B5-Asp-3COOHF-Aib-Ala-Phe-Lys*3-PyrS2-3Thi-3BrF-GlnR*3-Ala-NH2] the same measures were below 50 nM and 3 to 10 µM.
For the molecule `CC(=O)N1CCC[C@]12CC=CCCCC1(CCCC=CCCCOC(=O)N3CC[C@@]4(C3)NC(=O)[C@H](CCCCNC(=O)CC[C@@H](C(=O)N[C@@H](C)C(N)=O)NC(=O)[C@H](Cc3csc5ccccc35)NC(=O)[C@H](Cc3cccc5ccccc35)NC4=O)NC(=O)[C@H](Cc3ccccc3)NC(=O)[C@H](C)NC(=O)C(C)(C)NC(=O)[C@H](Cc3cccc(C(=O)O)c3)NC(=O)[C@H](CC(=O)O)NC1=O)NC(=O)[C@H](CC(C)(C)C)NC(=O)[C@H](CC(=O)O)NC2=O` (relative stereo) [I-334, Ac-PL3-Asp-Npg-B5-Asp-3COOHF-Aib-Ala-Phe-Lys*3-PyrS2-1NapA-BztA-GlnR*3-Ala-NH2], the IC50 in assay [1] is below 50 nM; in assay [2] it was 1.5 to 3 µM.
With `CC(=O)N1CCC[C@]12CC=CCCCC1(CCCC=CCCCOC(=O)N3CC[C@@]4(C3)NC(=O)[C@H](CCCCNC(=O)CC[C@@H](C(=O)N[C@@H](CCC(=O)O)C(=O)N[C@@H](C)C(N)=O)NC(=O)[C@H](Cc3csc5ccccc35)NC(=O)[C@H](Cc3ccsc3)NC4=O)NC(=O)[C@H](Cc3ccccc3)NC(=O)[C@H](C)NC(=O)C(C)(C)NC(=O)[C@H](Cc3cccc(C(=O)O)c3)NC(=O)[C@H](CC(=O)O)NC1=O)NC(=O)[C@H](CC(C)(C)C)NC(=O)[C@H](CC(=O)O)NC2=O` (relative stereo) [I-342, Ac-PL3-Asp-Npg-B5-Asp-3COOHF-Aib-Ala-Phe-Lys*3-PyrS2-3Thi-BztA-GlnR*3-Glu-Ala-NH2], the IC50 in assay [1] was below 50 nM; in assay [2], 1.5 to 3 µM.
